Tested on: EGFR in NRCF
Test: EGFR-dependent DMR response to EGF in NRCF
Assay type: cell-based, rat
Details: Gef 1 μmol/L, 30 min; EGF 1 nmol/L

**Q.** For COc1cc2ncnc(Nc3ccc(F)c(Cl)c3)c2cc1OCCCN1CCOCC1 [Gef, gefitinib], which “effect on EGF-dependent DMR response” value is on record?
**A.** completely blocks

From paper PMC3968527, “Dynamic mass redistribution analysis of endogenous β-adrenergic receptor signaling in neonatal rat cardiac fibroblasts” (Pharmacology Research & Perspectives, 2014)
